Tests used:
[1] = test system: CS91 murine melanoma allograft; test: In vivo anti-melanoma efficacy, immunocompetent allograft model, tumor volume; settings: day 18, DBA/2 mice, nNOS inhibitor 10 mg/kg/day intraperitoneal, anti-PD-1 100 µg twice per week for 2 weeks
[2] = test system: CS91 murine melanoma allograft; test: Survival analysis in the murine melanoma model (endpoint tumor volume 2000 mm^3); settings: DBA/2 mice, CS91, result in words
[3] = Body weight, cecum weight and toxicity signs in treated mice; settings: prolonged treatment, 21 days
CS91 cells = test: Ex vivo sensitivity of murine melanoma cells after prolonged treatment (MTT); settings: read-out: IC50 of CS91 cells isolated from control-treated mice

CNCc1cccc(CCc2ccc3c(C)cc(N)nc3c2)c1
tumor growth / average tumor volume [1]: 26.3 % of the control
median survival / mouse survival compared with the control group [2]: not found to have significantly different median survival values
body weight compared with the control [3]: did not exhibit significant changes
IC50 (CS91 cells): 4.2 µM
